# Literature values, collected in US8765060B2, “Chemical sensor” (Regents of the University of Minnesota, priority 2005, dated 2014).
# Conditions: reported salts of 2; cited from earlier work
compound,measurement,value
FC(F)(F)C(F)(F)C(F)(F)C(F)(F)C(F)(F)C(F)(F)c1cc([B-](c2cc(C(F)(F)C(F)(F)C(F)(F)C(F)(F)C(F)(F)C(F)(F)F)cc(C(F)(F)C(F)(F)C(F)(F)C(F)(F)C(F)(F)C(F)(F)F)c2)(c2cc(C(F)(F)C(F)(F)C(F)(F)C(F)(F)C(F)(F)C(F)(F)F)cc(C(F)(F)C(F)(F)C(F)(F)C(F)(F)C(F)(F)C(F)(F)F)c2)c2cc(C(F)(F)C(F)(F)C(F)(F)C(F)(F)C(F)(F)C(F)(F)F)cc(C(F)(F)C(F)(F)C(F)(F)C(F)(F)C(F)(F)C(F)(F)F)c2)cc(C(F)(F)C(F)(F)C(F)(F)C(F)(F)C(F)(F)C(F)(F)F)c1.[Na+] [compound 2],solubility in perfluoro(butyltetrahydrofuran),soluble
